Experimental data reported in US20070020267A1 (published 2007).

Sequences of proteins named here, by UniProt entry; tags and fusion partners are left off. A line that says so, or that is headed by a name, gives the form on record, which may keep a tag or linker.
UniProt P15692, other isoform, or with tags, fused parts or gaps limits assumed: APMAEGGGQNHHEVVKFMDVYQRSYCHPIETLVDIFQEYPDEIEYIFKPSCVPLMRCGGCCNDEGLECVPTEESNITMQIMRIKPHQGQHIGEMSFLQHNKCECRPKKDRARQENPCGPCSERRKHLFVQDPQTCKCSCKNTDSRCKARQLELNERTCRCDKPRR
UniProt Q00731, other isoform, or with tags, fused parts or gaps limits assumed: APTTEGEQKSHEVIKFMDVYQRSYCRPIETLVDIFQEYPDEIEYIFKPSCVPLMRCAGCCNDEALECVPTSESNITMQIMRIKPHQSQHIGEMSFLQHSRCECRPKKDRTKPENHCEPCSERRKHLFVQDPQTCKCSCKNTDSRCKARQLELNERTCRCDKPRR

How the values were obtained:
human VEGF (hVEGF) [1] = biological target: T1, human VEGF (hVEGF) (human, UniProt P15692-4 27-191, limits assumed); experiment: cell-based or functional assay
murine VEGF (mVEGF) [2] = biological target: T2, murine VEGF (mVEGF) (mouse, UniProt Q00731-2 27-190, limits assumed); experiment: cell-based or functional assay
human VEGF (hVEGF) [3] = biological target: T1, human VEGF (hVEGF); experiment: SPR (BIAcore-3000), VEGF coupled to the chip, soluble Fab, 25 C
murine VEGF (mVEGF) [4] = biological target: T2, murine VEGF (mVEGF); experiment: as above

HuVEC growth inhibition, fold improvement over G6 (human VEGF (hVEGF) [1]) [fold]	HuVEC growth inhibition, fold improvement over G6 (murine VEGF (mVEGF) [2]) [fold]	Kd (human VEGF (hVEGF) [3]) [nM]	Kd (murine VEGF (mVEGF) [4]) [nM]	Binder
≥ 100	≥ 100			G6-31 Fab (Fab, V domains shown) VH: EVQLVESGGGLVQPGGSLRLSCAASGFTISDYWIHWVRQAPGKGLEWVAGITPAGGYTYYADSVKGRFTISADTSKNTAYLQMNSLRAEDTAVYYCARFVFFLPYAMDYWGQGTLVTVSS VL: DIQMTQSPSSLSASVGDRVTITCRASQDVSTAVAWYQQKPGKAPKLLIYSASFLYSGVPSRFSGSGSGTDFTLTISSLQPEDFATYYCQQGYGNPFTFGQGTKVEIKR
		2	13	NNK-2 (Fab, V domains shown, Soluble Fab, NNK variant of YADS2) VH: EVQLVESGGGLVQPGGSLRLSCAASGFAIYDYDIHWVRQAPGKGLEWVALIAPYAGATAYADSVKGRFTISADTSKNTAYLQMNSLRAEDTAVYYCSRSSFAFWLAMDYWGQGTLVTVSS VL: DIQMTQSPSSLSASVGDRVTITCRASQSYAYAVAWYQQKPGKAPKLLIYDASYLYSGVPSRFSGSGSGTDFTLTISSLQPEDFATYYCQQAYSSPDTFGQGTKVEIKR
≥ 100	≥ 100			G6-23 Fab (Fab, V domains shown) VH: EVQLVESGGGLVQPGGSLRLSCAASGFTISDYWIHWVRQAPGKGLEWVAGITPAGGYTYYADSVKGRFTISADTSKNTAYLQMNSLRAEDTAVYYCARFVFFLPYAMDYWGQGTLVTVSS VL: DIQMTQSPSSLSASVGDRVTITCRASQDVSTAVAWYQQKPGKAPKLLIYSASFLYSGVPSRFSGSGSGTDFTLTISSLQPEDFATYYCKQGYANPWTFGQGTKVEIKR
